Measurements taken from patent US11046697B2, “Compounds and compositions useful for treating disorders related to NTRK” (BLUEPRINT MEDICINES CORPORATION, priority 2015, dated 2021).

Chains of the proteins cited; added tags and fusions are not shown. Residues count along the entry.
UniProt P04629, 440-796 limits assumed: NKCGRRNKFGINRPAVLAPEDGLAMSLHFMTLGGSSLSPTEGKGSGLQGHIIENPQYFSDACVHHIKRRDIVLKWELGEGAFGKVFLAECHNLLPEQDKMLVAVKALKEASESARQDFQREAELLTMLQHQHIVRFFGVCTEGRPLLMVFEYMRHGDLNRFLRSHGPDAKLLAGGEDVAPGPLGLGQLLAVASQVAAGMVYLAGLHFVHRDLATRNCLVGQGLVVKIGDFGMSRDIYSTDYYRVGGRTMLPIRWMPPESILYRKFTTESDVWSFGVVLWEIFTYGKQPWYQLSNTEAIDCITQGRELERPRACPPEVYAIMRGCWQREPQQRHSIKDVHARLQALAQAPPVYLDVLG

What was measured:
[1] = test system: KM12 wild type colon carcinoma cell line harboring the TPM3-NTRK1 fusion protein; test: NTRK wild type cellular assay (CellTiter-Glo growth inhibition); type: cell-based; conditions: read-out: KM12 (WT) IC50, 72 hr
[2] = test system: KM12 Cliff (G595R) cell line; test: NTRK G595R mutant cellular assay (CellTiter-Glo growth inhibition); type: cell-based; conditions: read-out: KM12 (G595R) IC50, 72 hr
wild type NTRK1 enzyme = wild type NTRK1 enzyme (Homo sapiens, UniProt P04629); test: NTRK1 Wild Type Assay at 1 mM ATP; type: biochemical; conditions: read-out: Enz NTRK1 IC50

SMILES	IC50 [1]	IC50 (wild type NTRK1 enzyme)	IC50 [2]
CN(Cc1cc(F)ccc1C#N)C(=O)c1n[nH]c2ncnc(N[C@H]3[C@H](O)[C@H](O)[C@@H]4C[C@@H]43)c12	10 to 100 nM	< 10 nM	< 10 nM
O=C(NCc1cc(F)ccc1C(F)(F)F)c1n[nH]c2ncnc(N[C@@H]3CC[C@@H](O)[C@H]3O)c12	100 to 1000 nM	10 to 100 nM	100 to 1000 nM
COC(=O)[C@@H]1C[C@@H](Nc2ncnc3[nH]nc(C(=O)NCc4cc(F)ccc4F)c23)[C@H](O)[C@@H]1O	> 1000 nM	> 1000 nM	> 1000 nM
CN(Cc1cc(F)ccc1C#N)C(=O)c1n[nH]c2ncnc(N[C@@H]3CCOC[C@H]3O)c12	10 to 100 nM	10 to 100 nM	10 to 100 nM
COC(=O)[C@@H]1C[C@@H](Nc2ncnc3[nH]nc(C(=O)NCc4cc(F)ccc4F)c23)[C@@H](O)[C@H]1O	10 to 100 nM	10 to 100 nM	100 to 1000 nM
CN(Cc1cc(F)ccc1F)C(=O)c1n[nH]c2ncnc(N[C@@H]3COC[C@@H](O)[C@H]3O)c12	10 to 100 nM	10 to 100 nM	10 to 100 nM
O=C(c1n[nH]c2ncnc(N[C@@H]3CCC[C@@H](O)[C@H]3O)c12)N1CCC[C@@H]1c1cc(F)ccc1F	10 to 100 nM	< 10 nM	10 to 100 nM
CN(Cc1cc(F)ccc1Cl)C(=O)c1n[nH]c2ncnc(N[C@@H]3CC[C@@H](O)[C@H]3O)c12	< 10 nM	< 10 nM	10 to 100 nM
CN(Cc1cc(F)ccc1C#N)C(=O)c1n[nH]c2ncnc(N[C@@H]3CC[C@@H](O)[C@H]3O)c12	10 to 100 nM	< 10 nM	< 10 nM
COc1c(F)cc(F)cc1CNC(=O)c1n[nH]c2ncnc(N[C@@H]3CC[C@@H](O)[C@H]3O)c12	100 to 1000 nM	100 to 1000 nM	100 to 1000 nM
CN(C)C(=O)[C@H]1C[C@@H](O)[C@H](Nc2ncnc3[nH]nc(C(=O)NCc4cc(F)ccc4F)c23)C1	10 to 100 nM	< 10 nM	10 to 100 nM
O=C(NCc1cc(F)ccc1C(F)(F)F)c1n[nH]c2ncnc(N[C@@H]3COCC[C@H]3O)c12	100 to 1000 nM	10 to 100 nM	100 to 1000 nM
CN(Cc1cc(Cl)ccc1C#N)C(=O)c1n[nH]c2ncnc(N[C@H]3[C@H](O)[C@H](O)[C@@H]4C[C@@H]43)c12	< 10 nM	< 10 nM	< 10 nM
O=C(N[C@H](c1cccc(F)c1)C(F)(F)F)c1n[nH]c2ncnc(N[C@@H]3CCC[C@H]3O)c12	> 1000 nM	> 1000 nM	> 1000 nM
O=C(N[C@@H](c1cccc(F)c1)C(F)(F)F)c1n[nH]c2ncnc(N[C@@H]3CCC[C@H]3O)c12	> 1000 nM	> 1000 nM	> 1000 nM
O=C(NCc1cc(F)cc(Cl)c1Cl)c1n[nH]c2ncnc(N[C@@H]3COCC[C@H]3O)c12	100 to 1000 nM	10 to 100 nM	100 to 1000 nM
COc1ncc(F)cc1CN(C)C(=O)c1n[nH]c2ncnc(N[C@@H]3CC[C@@H](O)[C@H]3O)c12	10 to 100 nM	10 to 100 nM	10 to 100 nM
CN(Cc1cc(F)ccc1F)C(=O)c1n[nH]c2ncnc(N[C@H]3[C@H](O)[C@H](O)[C@@H]4C[C@@H]43)c12	< 10 nM	< 10 nM	< 10 nM
CC(C)(O)[C@H]1C[C@@H](O)[C@H](Nc2ncnc3[nH]nc(C(=O)N4C[C@@H](F)C[C@@H]4c4cccc(F)c4)c23)C1	< 10 nM	< 10 nM	< 10 nM
COc1c(F)cc(F)cc1CN(C)C(=O)c1n[nH]c2ncnc(N[C@@H]3CC[C@@H](O)[C@H]3O)c12	10 to 100 nM	< 10 nM	10 to 100 nM
CN(Cc1cc(F)ccc1C#N)C(=O)c1n[nH]c2ncnc(N[C@@H]3CCC[C@H]3O)c12	< 10 nM	< 10 nM	< 10 nM
O=C(c1n[nH]c2ncnc(N[C@@H]3COCC[C@H]3O)c12)N1CCC[C@@H]1c1cc(F)ccc1F	10 to 100 nM	< 10 nM	10 to 100 nM
CN(Cc1cc(F)cc(Cl)c1)C(=O)c1n[nH]c2ncnc(N[C@@H]3CC[C@@H](O)[C@H]3O)c12	10 to 100 nM	< 10 nM	10 to 100 nM
O=C(c1n[nH]c2ncnc(N[C@@H]3C=C[C@@H](O)[C@H]3O)c12)N1C[C@@H](F)C[C@@H]1c1cccc(F)c1	10 to 100 nM	< 10 nM	10 to 100 nM
CN(Cc1cc(F)ccc1C#N)C(=O)c1n[nH]c2ncnc(N[C@@H]3CCC[C@@H](O)[C@H]3O)c12	10 to 100 nM	< 10 nM	10 to 100 nM
CCN(Cc1cc(F)ccc1F)C(=O)c1n[nH]c2ncnc(N[C@@H]3COCC[C@H]3O)c12	10 to 100 nM	10 to 100 nM	100 to 1000 nM
COc1ccc(F)cc1CN(C)C(=O)c1n[nH]c2ncnc(N[C@@H]3CC[C@@H](O)[C@H]3O)c12	10 to 100 nM	< 10 nM	10 to 100 nM
CCN1C[C@@H](O)[C@H](Nc2ncnc3[nH]nc(C(=O)N[C@H](C)c4cc(F)ccc4F)c23)C1	100 to 1000 nM	100 to 1000 nM	100 to 1000 nM
O=C(c1n[nH]c2ncnc(N[C@@H]3CC[C@@H](O)[C@H]3O)c12)N1CCC[C@@H]1c1cc(F)cc(F)c1F	10 to 100 nM	< 10 nM	< 10 nM

Second part, led by results:

IC50 [1]	IC50 (wild type NTRK1 enzyme)	SMILES	IC50 [2]
< 10 nM	< 10 nM	O=C(c1n[nH]c2ncnc(N[C@@H]3CCC[C@@H](O)[C@H]3O)c12)N1C[C@@H](F)C[C@@H]1c1cc(F)cc(F)c1	< 10 nM
< 10 nM	< 10 nM	O=C(c1n[nH]c2ncnc(N[C@@H]3CC[C@@H](O)[C@H]3O)c12)N1C[C@@H](F)C[C@@H]1c1cccc(F)c1	< 10 nM
10 to 100 nM	< 10 nM	O=C(c1n[nH]c2ncnc(N[C@@H]3COC[C@@H](O)[C@H]3O)c12)N1C[C@@H](F)C[C@@H]1c1cc(F)ccc1F	10 to 100 nM
< 10 nM	< 10 nM	N#Cc1cc(F)cc([C@H]2C[C@H](F)CN2C(=O)c2n[nH]c3ncnc(N[C@@H]4CCC[C@H]4O)c23)c1	< 10 nM
< 10 nM	< 10 nM	O=C(c1n[nH]c2ncnc(N[C@@H]3CC[C@@H](O)[C@H]3O)c12)N1C[C@@H](F)C[C@@H]1c1cc(F)ccc1F	< 10 nM
< 10 nM	< 10 nM	O=C(c1n[nH]c2ncnc(N[C@@H]3CCOC[C@H]3O)c12)N1C[C@@H](F)C[C@@H]1c1cc(F)ccc1F	< 10 nM
100 to 1000 nM	100 to 1000 nM	O=C(c1n[nH]c2ncnc(N[C@@H]3CC[C@@H](O)[C@H]3O)c12)N1CC(F)(F)C[C@@H]1c1cncc(F)c1	> 1000 nM
100 to 1000 nM	10 to 100 nM	N#C[C@H]1C[C@H](c2cc(F)ccc2F)N(C(=O)c2n[nH]c3ncnc(N[C@@H]4COC[C@H]4O)c23)C1	100 to 1000 nM
10 to 100 nM	< 10 nM	O=C(c1n[nH]c2ncnc(N[C@@H]3CCC[C@@H](O)[C@H]3O)c12)N1C[C@@H](F)C[C@@H]1c1cncc(F)c1	10 to 100 nM
10 to 100 nM	< 10 nM	O=C(c1n[nH]c2ncnc(N[C@@H]3CC[C@@H](O)[C@H]3O)c12)N1C[C@@H](F)C[C@@H]1c1cncc(F)c1	10 to 100 nM
10 to 100 nM	10 to 100 nM	O=C(c1n[nH]c2ncnc(N[C@@H]3COC[C@H]3O)c12)N1C[C@@H](F)C[C@@H]1c1cncc(F)c1	100 to 1000 nM
10 to 100 nM	< 10 nM	N#Cc1cc(F)cc([C@H]2C[C@H](F)CN2C(=O)c2n[nH]c3ncnc(N[C@@H]4C[C@@H](F)C[C@H]4O)c23)c1 (relative stereo)	10 to 100 nM
< 10 nM	< 10 nM	O=C(c1n[nH]c2ncnc(N[C@@H]3CC[C@@H](O)[C@H]3O)c12)N1C[C@@H](F)C[C@@H]1c1cc(F)cnc1Cl	< 10 nM
< 10 nM	< 10 nM	O=C(c1n[nH]c2ncnc(N[C@@H]3CCC[C@H]3O)c12)N1C[C@@H](F)C[C@@H]1c1cc(F)ccc1F	< 10 nM
